Target: Beta-2 adrenergic receptor (Homo sapiens, UniProt P07550)
Experiment: biochemical

Chains of the proteins cited; added tags and fusions are not shown.
UniProt P07550, whole entry: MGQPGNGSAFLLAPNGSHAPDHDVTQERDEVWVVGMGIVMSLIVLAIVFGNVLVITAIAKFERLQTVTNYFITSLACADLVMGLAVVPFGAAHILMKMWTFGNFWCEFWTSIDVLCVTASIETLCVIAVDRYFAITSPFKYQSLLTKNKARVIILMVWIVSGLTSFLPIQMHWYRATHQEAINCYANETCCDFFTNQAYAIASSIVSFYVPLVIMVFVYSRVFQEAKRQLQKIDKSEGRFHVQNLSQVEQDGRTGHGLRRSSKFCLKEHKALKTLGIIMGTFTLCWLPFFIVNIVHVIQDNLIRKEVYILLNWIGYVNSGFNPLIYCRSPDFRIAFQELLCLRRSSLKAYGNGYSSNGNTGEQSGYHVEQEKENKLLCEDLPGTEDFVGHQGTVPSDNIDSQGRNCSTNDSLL

Question: `C=CCc1ccccc1OCC(O)CN1CCC(CN2C(=O)c3cccc4cccc(c34)C2=O)CC1` (stereo unspecified) was tested. Which Ki did it give?
Answer: 80 nM

Source: ChEMBL document CHEMBL1155476, “A vHTS approach for the identification of beta-adrenoceptor ligands” (Bioorg Med Chem Lett, 2010)
